Test system: Human colon cancer cell line HT-29
Assay: Determination of the activity of inhibiting cell proliferation (Cell Counting Kit-8)
Details: read-out: Cell proliferation inhibitory activity (HT29) IC50; HT29, 2,000 cells/well, incubated four days

## O=C(NOCCO)c1cc(/C=N/OCCN2CCCC2=O)c(F)c(F)c1Nc1ccc(I)cc1F
  IC50: 35 nM

— patent US8084645B2, “4-phenylamino-benzaldoxime derivatives and uses thereof as mitogen-activated protein kinase kinase (MEK) inhibitors” (Chugai Seiyaku Kabushiki Kaisha, priority 2003, dated 2011)
